This is a selection: effects in other tests are not listed, and their absence says nothing.

The subject of this assay is transformants of Arabidopsis to which a gene encoding gFBA was introduced and wild-type Arabidopsis (Columbia; Col). Description: Ammonium nitrate fertilization of gFBA transformants and wild-type Arabidopsis. To be noted: any of the plants.

Turning to ammonium nitrate, the “concentration at which the effect on biomass and seed weight was saturated” value was 18 mM; the “concentration at which the increase of biomass and seed weight slowed down” value came out at 9 mM. Also, the “whole amount of biomass and seed weight” value (0, 3, 9 or 18 mM ammonium nitrate, 25 mL per three individuals one time a week) was “increased as concentration of ammonium nitrate used as a fertilizer increased”. Further, the harvest index entry (3 mM- and 9 mM-ammonium nitrate) is given as “the harvest index increased”. Moreover, where the note is “18 mM-ammonium nitrate”, the harvest index result is given as “dropped lower than the harvest index in a case of using no fertilizer”.

The values above are taken from patent US9532519B2, “Plant growth regulator and use thereof” (Japan Science and Technology Agency, priority 2006, dated 2017).
